## Measured affinities in a library of Ab-14 heavy chain variants

Data: MIT Lincoln Laboratory AlphaSeq set, Li et al. 2023, doi:10.1038/s41467-023-39022-2, as distributed in FLAb.

The target is the same throughout: PDVDLGDISGINAS, from the HR2 region of SARS-CoV-2 spike.

Each scFv is VH, a 15-residue (Gly4Ser)3 linker, VL, as in the parent Ab-14, and differs from it in the CDRs of the heavy chain only.
VH: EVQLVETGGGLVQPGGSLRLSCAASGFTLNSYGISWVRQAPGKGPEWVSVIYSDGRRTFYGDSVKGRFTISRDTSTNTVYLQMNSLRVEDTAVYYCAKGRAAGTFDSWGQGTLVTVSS
VL: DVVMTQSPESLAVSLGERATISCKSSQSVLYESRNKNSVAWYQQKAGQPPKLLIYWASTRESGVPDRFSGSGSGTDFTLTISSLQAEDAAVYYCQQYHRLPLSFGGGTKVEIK

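The starting antibody came from a phage panning campaign against this peptide. The variants were designed computationally from a first round of random CDR variants and then made and measured. Their group label is 14H_En_Gibbs (En: ensemble of fine-tuned language models; Gibbs: Gibbs sampling). The assay is AlphaSeq: two haploid yeast populations carry antibody and antigen on their surface. After mating in shaken culture at 30 °C for 16 h, diploids were selected and their barcode pairs sequenced. Each replicate has its own calibration line, from reference interactions of the BCL2 family. There are six technical replicates.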

Variants are written as CDR1, CDR2 and CDR3 of the heavy chain (limits as in the source). Parent: GFTLNSYGIS, VIYSDGRRTFYGDSVK, GRAAGTFDS. The read-out is the apparent dissociation constant on a log10 scale (nM): the lower, the stronger. Replicates are averaged; those with no signal do not enter the mean. An entry "ND" has no value in the source: the pair was not observed among the diploids in that replicate. This suggests poor binding but is not conclusive. As a blank, each scFv also met three strains without target: over all heavy chain designs, 1% of these pairings were detected, typically at 2.08 and seldom below 0.84. Also given: how often the same scFv was detected with the empty control strains, with their mean in brackets. The authors' rule: three or more of the six replicates give a measured affinity, fewer mean a poor binder. The range of this assay differs from that of the first round, and the authors advise against merging the two.

| # | CDR-H1 | CDR-H2 | CDR-H3 | log10 Kd, replicates | mean log10 Kd (nM) | empty controls |
|---|---|---|---|---|---|---|
| 1 | GFDIEEYGIS | VIYADGIRTSYQNKVK | GRSGGIINV | ND / ND / ND / 3.51 / ND / ND | 3.51 | 1 of 18 (2.05) |
| 2 | GFDLDEYGIS | VIYADGMRSAIKENVK | GEISGTLNA | ND / ND / ND / ND / ND / ND | ND | 0 of 18 |
| 3 | GFSLNEYGIS | VIYADGKSMHYADSVK | GLESGFFDI | ND / ND / ND / ND / ND / ND | ND | 0 of 18 |
| 4 | GFSLDEYGIS | VIYADGIRQHYSDQVK | GVVFGNVMF | ND / ND / ND / ND / 2.88 / ND | 2.88 | 1 of 18 (0.71) |
| 5 | GFDLGEYGVS | VIYADGTRAQYANKVK | GNISYAFTV | ND / ND / 1.84 / ND / ND / 2.97 | 2.41 | 0 of 18 |
| 6 | GFNLKEYGIS | VIYADGVRAQYAESVK | GTYSGKFGM | ND / ND / ND / ND / ND / ND | ND | 0 of 18 |
| 7 | GFNLEDYGIS | VIYADGIRMSYAEAVK | GQNSGVIVN | ND / ND / ND / ND / ND / ND | ND | 0 of 18 |
| 8 | GFSLDEYGIS | VIYADGQRVQYDDPFK | GEQAGNVDV | ND / ND / ND / ND / ND / ND | ND | 0 of 18 |
| 9 | GFNLDEYGIS | VIYADGNRVFYANTVK | GLLGIGYSV | ND / ND / ND / ND / ND / ND | ND | 0 of 18 |
| 10 | GFDLDEYGIS | VIYADGMRSKYADSVK | GTNGGTIEA | ND / ND / ND / ND / ND / ND | ND | 0 of 18 |
| 11 | GESLEEYGIS | VIYADGMRNAYVSKVK | GTNSGDFTI | 1.30 / 0.30 / ND / 0.34 / 1.17 / 0.81 | 0.79 | 0 of 18 |
| 12 | GQDINEYGIS | VIYADGMRKAYVQNVK | GENTFSFEI | ND / ND / ND / ND / ND / ND | ND | 0 of 18 |
| 13 | GFSLDEYGIS | VIYADGVRTQYDDSFK | GTGDFDIEL | ND / ND / ND / ND / ND / ND | ND | 0 of 18 |
| 14 | GFDLDEYGIS | VIYADGKRTRYANNVK | GGVGGIGLS | ND / ND / ND / ND / ND / ND | ND | 0 of 18 |
| 15 | GFDIEEYGIS | VIYADGVRMMYASNFK | GKIAGTFLL | ND / 1.41 / ND / ND / 1.97 / ND | 1.69 | 0 of 18 |
| 16 | GFDLNEYGIS | VIYADGTRKSYADNVK | GYQHSVVSI | ND / ND / ND / ND / ND / ND | ND | 0 of 18 |
| 17 | GMKLQDYGIS | VIYADGRRTAFKESVK | GQIAGTFNF | 0.76 / ND / ND / ND / 1.99 / ND | 1.37 | 0 of 18 |
| 18 | GVDIDEYGIS | VIYADGIRTFYIDKVK | GNVGGQFDM | ND / ND / ND / ND / ND / ND | ND | 0 of 18 |
| 19 | GFDLDEYGVS | VIYADGERKFYADKVK | GTHGETRDI | ND / 1.52 / 2.53 / ND / ND / ND | 2.03 | 1 of 18 (1.67) |
| 20 | GMSLDEYGIS | VIYADGMRSAYSDKVK | GEVDEYAYV | ND / ND / ND / ND / ND / ND | ND | 0 of 18 |
| 21 | GFTLDEYGIS | VIYADGQRTAYIDDVK | GQMGGNGYG | ND / ND / ND / ND / ND / ND | ND | 0 of 18 |
| 22 | GFDLQEYGIS | VIYADGKRSMYTNDVK | GELGLGEVI | ND / ND / ND / ND / ND / ND | ND | 0 of 18 |
| 23 | GMNLDEYGIS | VIYADGLRYEYANTVK | GEMAGFFMD | ND / ND / ND / ND / ND / ND | ND | 0 of 18 |
| 24 | GFDLEEYGIS | VIYADGMRTQYINAVK | GIAGDIMDL | 1.26 / ND / ND / 1.88 / ND / 2.10 | 1.75 | 1 of 18 (3.23) |
| 25 | GFDLQEYGIS | VIYADGLREAYSDKVK | GQLMGYFSF | ND / ND / ND / ND / ND / ND | ND | 0 of 18 |
| 26 | GFDLEEYGIS | VIYADGLRQYYKDNFK | GWNSGTIAV | ND / ND / 1.68 / ND / ND / ND | 1.68 | 0 of 18 |
| 27 | GFDLDEYGIS | VIYADGIRQYYVDNVK | GLLAGHTIT | ND / ND / ND / ND / ND / ND | ND | 0 of 18 |
| 28 | GFDLMEYGIS | VIYADGVRTAYQDQVK | GEEGGALYT | ND / ND / ND / ND / ND / ND | ND | 0 of 18 |
| 29 | GYDLVEYGIS | VIYADGQRTMYADTVK | GHHGGIIDM | ND / ND / ND / ND / ND / ND | ND | 1 of 18 (0.33) |
| 30 | GFQLDEVGIS | VIYADGIRRAYASKVK | GGDGGSFDL | ND / ND / ND / ND / ND / ND | ND | 0 of 18 |
| 31 | GDDLEEYGIS | VIYADGMRTYYEDSVK | GNVNGTFFI | ND / ND / ND / ND / ND / ND | ND | 0 of 18 |
| 32 | GFDLGEYGIS | VIYADGQRRAYIDAVK | GHSSGDYLA | ND / ND / ND / ND / ND / ND | ND | 0 of 18 |
| 33 | GFGLNEYGVS | VIYADGVRASYADNVK | GFNFGQDIL | ND / ND / ND / ND / ND / ND | ND | 0 of 18 |
| 34 | GFSINEYGIS | VIYADGNRSAYIDAVK | GNSGSSFLE | ND / ND / ND / ND / ND / ND | ND | 0 of 18 |
| 35 | GFNLDEQGIS | VIYADGMRTVYAQNVK | GQNVEFTVF | ND / ND / ND / ND / ND / ND | ND | 0 of 18 |
| 36 | GQDLNEYGIS | VIYADGLRTAYSNNFK | GVNAGFDQY | ND / ND / ND / ND / ND / ND | ND | 0 of 18 |
| 37 | GFDVNEYGIS | VIYADGVRRTYQDAVK | GNQSGVVDV | ND / ND / ND / ND / ND / ND | ND | 0 of 18 |
| 38 | GKDLYEYGIS | VIYADGTRTAAANTVK | GEIAGTLNV | ND / ND / ND / ND / ND / ND | ND | 0 of 18 |
| 39 | GKSLDEYGIS | VIYADGLRSVYANSVK | GQFDDAMDL | ND / ND / ND / ND / ND / ND | ND | 1 of 18 (2.32) |
| 40 | GFDLENQGVS | VIYADGKRAAYVDNVK | GYSTGFIDV | ND / ND / ND / ND / ND / ND | ND | 0 of 18 |
| 41 | GFQIDEYGIS | VIYADGERASYAADVK | GSVDGVGLT | ND / ND / ND / ND / ND / ND | ND | 0 of 18 |
| 42 | GKDLEEYGIS | VIYADGHRAAYIDSVK | GIHMDVMTV | ND / ND / ND / ND / ND / ND | ND | 0 of 18 |
| 43 | GFDIEDYGIS | VIYADGQRTVEASNFK | GKIAGTFNL | -0.23 / -0.07 / 0.14 / -0.34 / 0.00 / -0.10 | -0.10 | 0 of 18 |
| 44 | GFGMEEYGIS | VIYADGQRLAYADEVK | GENAGSFDI | ND / ND / ND / 1.76 / 2.00 / ND | 1.88 | 0 of 18 |
| 45 | GFQLNEYGVS | VIYADGMRSSYQDSVK | GSNSSLFDV | ND / ND / ND / ND / ND / ND | ND | 0 of 18 |
| 46 | GNVLDEYGIS | VIYADGMRTSYAQNFK | GIEGDNFMT | ND / ND / ND / ND / ND / ND | ND | 0 of 18 |
| 47 | GNDLNEYGIS | VIYADGSRTSYIEKVK | GLVGGMLIV | ND / ND / ND / ND / ND / ND | ND | 0 of 18 |

The first 3 entries again:

| CDR-H1 | CDR-H2 | CDR-H3 | log10 Kd, replicates | mean log10 Kd (nM) | empty controls |
|---|---|---|---|---|---|
| GFDIEEYGIS | VIYADGIRTSYQNKVK | GRSGGIINV | ND / ND / ND / 3.51 / ND / ND | 3.51 | 1 of 18 (2.05) |
| GFDLDEYGIS | VIYADGMRSAIKENVK | GEISGTLNA | ND / ND / ND / ND / ND / ND | ND | 0 of 18 |
| GFSLNEYGIS | VIYADGKSMHYADSVK | GLESGFFDI | ND / ND / ND / ND / ND / ND | ND | 0 of 18 |